Data published in article PMC7589326, “Synthesis and Pharmacological Evaluation of Fluorinated Quinoxaline‐Based κ‐Opioid Receptor (KOR) Agonists Designed for PET Studies” (Chemmedchem, 2020).
Where two headings read alike, the source gives them in different places.

Experiments:
KOR [1] = target: T1, KOR (Homo sapiens, UniProt P41145); assay: Tango β-arrestin-2 recruitment assay (HTLA cells); assay type: cell-based; conditions: for EC50: read-out: β-Arrestin-2 EC50; for β-Arrestin-2 E max: refers to U-50,488 (100 % intrinsic activity)
[2] = tested on: mouse T cells (wild-type); conditions: for expression of surface activation markers CD25, CD44 and CD69 and IFN-γ production: 5 μg/mL
KOR [3] = target: T1, KOR; assay: cAMP inhibition assay (GloSensor, HEK 293T cells); assay type: cell-based; conditions: human HEK 293T cells; for EC50: read-out: cAMP EC50
KOR [4] = target: T2, KOR (Cavia porcellus, UniProt P41144); assay: KOR competitive receptor binding assay with [3H]U-69,593; parameters: species or system guinea pig; conditions: for KOR:DOR selectivity: from Ki values; for Ki: read-out: Ki±SEM KOR [3H]U-69,593, guinea pig brain membrane preparations
human DCs = assay: Maturation and activation of PMA/ionomycin-stimulated human DCs; assay type: cell-based; conditions: 5 μM/mL each, 48 h after PMA/Iono 12 h, n=4 donors
mouse DCs (wild-type) = assay: Maturation and activation of PMA/ionomycin-stimulated mouse DCs (flow cytometry); assay type: cell-based; conditions: activated mouse DCs, 1 or 5 μg/mL, vs. PMA/Iono
DOR [5] = target: T3, DOR (Rattus norvegicus, UniProt P33533); assay: DOR receptor binding assay with [3H]DPDPE; conditions: read-out: Ki±SEM DOR [3H]DPDPE; rat brain membrane preparations
KOR [6] = target: T2, KOR; conditions: read-out: Ki±SEM KOR [3H]U-69,593; guinea pig brain membrane preparations; cited from earlier work
MOG induced EAE = conditions: mice; cited from earlier work
DOR [7] = target: T3, DOR; conditions: read-out: Ki DOR [3H]DPDPE; rat brain membrane preparations; cited from earlier work
[8] = tested on: T cells from KOR-deficient mice; assay: Activation of PMA/ionomycin-stimulated T cells from KOR-deficient mice; assay type: cell-based, mouse; conditions: 5 μg/mL
[9] = tested on: DCs from KOR-deficient mice; conditions: 5 μg/mL

O=C(Cc1ccc(Cl)c(Cl)c1)N1CCN[C@@H]2CCC[C@@H](N3CC[C@H](O)C3)[C@@H]21
EC50 (KOR [1]): 16 nM | β-Arrestin-2 E max (KOR [1]): 97% | expression of surface activation markers CD25, CD44 and CD69 and IFN-γ production [2]: did not modulate the activation status | cAMP E max (KOR [3]; refers to U-50,488 (100 % intrinsic activity), listed as 12 b): 102% | EC50 (KOR [3]): 0.2 nM | KOR:DOR selectivity (KOR [4]): more than 100 fold | Ki (KOR [4]): < 10 nM | Ki (KOR [4]; listed as 12 b): 2 nM | expression of CD11c and production of IFN-γ in human DCs (human DCs): only a minor but not significant | expression of maturation marker CD11c and IFN-γ production (mouse DCs (wild-type)): did non modulate | Ki (DOR [5]): 246 nM

O=C(Cc1ccc(Cl)c(Cl)c1)N1CCNC2CCCC(N3CCCC3)C21 (centres unmarked)
Ki (KOR [6]): 0.54 nM | protection from MS-like symptoms / disease severity in EAE (MOG induced EAE): almost complete protection | Ki (DOR [7]): 205 nM

O=C(Cc1ccc(Cl)c(Cl)c1)N1CCN[C@@H]2CCC[C@@H](N3CC[C@@H](F)C3)[C@@H]21
EC50 (KOR [1]): 6.9 nM | β-Arrestin-2 E max (KOR [1]): 91% | expression of activation markers or cytokine release in T cells from KOR-deficient mice [8]: did not result in an altered expression | expression of surface activation markers CD25, CD44 and CD69 and IFN-γ production [2]: significantly reducing | anti-inflammatory cytokine IL-10 in cell cultures ([2]; culture supernatants): significant upregulation | EC50 (KOR [3]): 0.033 nM | KOR:DOR selectivity (KOR [4]): more than 100 fold | Ki (KOR [4]): 1.5 nM | expression of CD11c and production of IFN-γ in human DCs (human DCs): reduced | anti-inflammatory effect (CD11c, IFN-γ) in DCs from KOR-deficient mice [9]: completely abrogated | expression of maturation marker CD11c and IFN-γ production (mouse DCs (wild-type)): significantly reduced | Ki (DOR [5]): 251 nM
